## scFv variants of Ab-14 (light chain) against a SARS-CoV-2 spike peptide

Reference: Li et al. 2023, doi:10.1038/s41467-023-39022-2. File: FLAb, binding data.

Target peptide (SARS-CoV-2 spike, HR2 region): PDVDLGDISGINAS

Parent scFv Ab-14: VH joined to VL by a (GGGGS)3 linker. Changes lie in the light chain CDRs alone.
VH: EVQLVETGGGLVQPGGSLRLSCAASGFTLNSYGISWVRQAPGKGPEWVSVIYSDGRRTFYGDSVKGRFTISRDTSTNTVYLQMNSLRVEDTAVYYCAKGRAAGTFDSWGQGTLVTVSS
VL: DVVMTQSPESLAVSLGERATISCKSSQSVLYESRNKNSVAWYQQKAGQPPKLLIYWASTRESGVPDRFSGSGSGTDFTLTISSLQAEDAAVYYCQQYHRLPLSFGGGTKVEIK

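Phage display of a naive human antibody library on the peptide gave the parent. The variants were designed computationally from a first round of random CDR variants and then made and measured. Group labels follow the data file (Ctrl: baseline library sampled from a position-specific scoring matrix, with some repeated check sequences; Rand: our label for a block that the file lists under HC and that is probably the random mutants of the ten best first-round binders; En: ensemble of fine-tuned language models; GP: Gaussian process model; HC: hill climbing; Gen: genetic algorithm; Gibbs: Gibbs sampling; a sequence that several methods proposed may carry one label only). The assay is AlphaSeq: two haploid yeast populations carry antibody and antigen on their surface. Binding brings cells together so that they mate, and sequencing counts the barcode pairs among the diploids. Scores were corrected for input abundance and mapped to Kd with protein pairs of known affinity run in the same pool. Each pool was mated in six replicate cultures.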

Each variant is given by its three light chain CDRs, as the data file delimits them; those of the parent are KSSQSVLYESRNKNSVA, WASTRES, QQYHRLPLS. Values are log10 of the apparent Kd in nM; lower means stronger binding. Replicates are averaged; those with no signal do not enter the mean. "nd" means that the variant was in the library but no mating with the target was seen in any replicate; the authors take this as a sign of poor binding, and no number exists. Three control strains display no target. For all light chain designs, 4% of the pairings with them gave a signal, with a median of 2.64 and one signal in twenty below 1.59, so weak values seen in few replicates may be background. For each scFv, signals with the empty controls are counted beside the result. A sequence measured in both rounds can read differently, since the two assays cover different ranges. Some sequences occur more than once in the pool; their replicates are pooled. The parent sequence was in this pool as ten entries: three were never detected, three once, and four in most replicates, with averages from 0.34 to 2.37. The authors averaged sequences with at least three values out of six and counted those with two or fewer as poor binders.

CDR-L1,CDR-L2,CDR-L3,group,mean log10 Kd (nM),seen in,signal with controls
ALRQKGFYLHGDRQNIA,HSDTRAA,QQYSMLPLA,En_Gibbs,0.07,6 of 6,0 of 18
KLSQQAEYESRVKNSVA,QASTRES,QQYHRLPLS,GP_Gibbs,-0.09,6 of 6,0 of 18
KSSQSVLYESRGKNSVA,QASGRES,QQYHRLPLS,Ctrl,1.49,1 of 6,0 of 18
KSSQSVLQESRNKNSVA,WASTRES,QQYHRLPLS,Ctrl,1.66,3 of 6,0 of 18
NLKEMEGTNQTKHGNIA,SVDQRMS,QQYFRLPLI,En_Gibbs,0.67,6 of 6,1 of 18
KLMWSMQYESRNKNSVA,GASYRES,QQYHRLPLS,GP_Gibbs,0.43,6 of 6,3 of 18
KLSQSMLYESRNKNSVA,HASLRLS,QCYHRLPLS,GP_Gibbs,2.42,6 of 6,1 of 18
KLASRQYQFGANHQNIA,DATDSMN,QQYMHLPFT,En_Gibbs,-0.63,6 of 6,0 of 18
HVSQSVLQESRNKNSVA,EASQRER,QQYHRLPLS,GP_Gibbs,0.06,6 of 6,2 of 18
KLMWSMQYESRNKNSVA,GASTRES,QQYHRLPLS,GP_Gibbs,0.20,6 of 6,1 of 18
KSSQSVLFESPNKNSVA,DASTRES,QQYHRLPLS,Rand,-0.05,6 of 6,1 of 18
KLGQAVGYESRNKSRVA,DNSTRES,QQYDRLPLS,En_HC,2.08,2 of 6,0 of 18
KLAQYVGGESRNKSSLA,DNSTRES,QQYERLPLS,En_HC,3.09,6 of 6,1 of 18
KFSQSNPYEQRNKNSVA,EASQREQ,QQYHRLPLS,GP_Gibbs,0.10,6 of 6,0 of 18
SLEMFTGMLNMYASSIA,NAHYLVQ,QQYYRLPIS,En_Gibbs,2.93,4 of 6,0 of 18
KSSQSVLYEVRNKNSVA,YASTRES,QQYHRLPLS,Ctrl,nd,0 of 6,0 of 18
KFSQSVLYESRNKNSVA,GASTRES,QQYHRLPLS,Ctrl+GP_Gen,0.45,11 of 12,2 of 36
KLSQSVDYESRNKNSVA,NASQRES,QQYHRLPLS,GP_Gen,-0.27,6 of 6,3 of 18
KLPQSVLYESRNPNSVA,NASTRES,QQYHRLPLS,GP_Gen,-0.26,6 of 6,3 of 18
HSSPSVNYESRNKNSVA,NASTRES,QQYHRLPLS,GP_HC,-0.14,6 of 6,1 of 18
KISGQYRFESLSKNSIA,EAQTRLK,QQYHRLPLS,En_HC,0.24,6 of 6,4 of 18
TISQMSTLFSQSINNVA,EVSTRIE,QQYDRLPLV,En_Gen,0.66,6 of 6,0 of 18
HSSPSFLYESRNKNTVA,NASTRES,QQYHRLPLS,Rand,1.40,6 of 6,0 of 18
TISQSAQQESHNRNSVA,DLSVRGS,QQYDRLPLS,En_HC,1.37,6 of 6,0 of 18
MLSMVTEGMRRKHNSVA,DNSTREA,QQYDRLPLS,En_Gen,1.84,6 of 6,0 of 18
KLSQSQLYESRNKNSVA,QASTRES,QDYHRLPLS,GP_Gen,0.71,6 of 6,0 of 18
KLVQFMNRGTHHTSNIA,DAVNRID,QQYYRLPLA,En_Gen,0.64,6 of 6,0 of 18
KSSQSVLGESGTKNSVA,WASTRES,QDYTRLPLS,Ctrl,1.61,6 of 6,2 of 18
IVSQVMLWGHLAKNSIA,EAQTRLN,QQYDRLPLF,En_Gen,1.69,2 of 6,0 of 18
FLSQSVLYESRNKNSVA,GASTRES,QQYHRLPLS,GP_Gen,0.01,6 of 6,2 of 18
KSSQSVLYESSNKNSVA,DASTRED,QQYHRLPLS,Ctrl,0.02,6 of 6,2 of 18
KSAISDLYESRSKNSVA,HASTRES,QQYHRLPLS,Ctrl,0.30,6 of 6,0 of 18
KSSISYPYESRNENSVA,EASTREQ,QQYHRLPLS,GP_HC,0.54,6 of 6,0 of 18
KVSQSQLYESRNMNSVA,NASTREM,QQYHRLPLY,GP_Gibbs,0.21,6 of 6,2 of 18
HMSQVTMYGYWNKNSVA,QTSTREE,QQYDRLPLS,En_HC,0.51,6 of 6,3 of 18
KSIQSVLYEDRNKNSVA,GASTREV,SQYHRLPLS,Ctrl,1.55,5 of 6,0 of 18
KLMNLMGGIEQMKNSIA,NLELGAR,QQYAHLPLV,En_Gibbs,nd,0 of 6,0 of 18
KLSCSELYDEPNSNSVA,NASTREM,QQYHRLPLS,GP_Gibbs,-0.09,6 of 6,2 of 18
KSSQSVLYESRNKNSVA,WASTRES,QQYHRLPCS,Ctrl,nd,0 of 6,1 of 18
KLSWSWLYESRNKNSVA,NASQRES,QQYHRLPLS,GP_Gen,-0.23,6 of 6,0 of 18
KLEFLHLYESRNKNSVA,EASTRES,QQYHRLPLS,GP_Gibbs,-0.13,6 of 6,4 of 18
NVRLNEGEIAMHMYAIA,GVDLRAD,QQYSRLPLF,En_Gibbs,0.72,6 of 6,0 of 18
VLGGQWGLGTTQNSSIA,NDSETML,QQYWRLPFM,En_Gibbs,nd,0 of 6,1 of 18
KLPQSHLYESRNKNSVA,AASTRES,QQYHRLPLS,GP_Gen,-0.16,6 of 6,1 of 18
MVSMMPNEPTRYSNAIA,DHSQRNT,QQYDRLPLS,En_Gibbs,1.08,6 of 6,0 of 18
KVSQSFLYESRPKNAVA,GASTRES,QQYHRLPLS,GP_HC,0.06,6 of 6,1 of 18
TISDLIMVASRNKNSVA,DESARPD,QQYHRLPLS,En_HC,0.17,6 of 6,0 of 18
HMSMLTLGGMRMRNSVA,QMTTREN,QQYDRLPLS,En_Gen,1.07,4 of 6,0 of 18
KLSQGVLYQSRNKNSVA,GASTRES,QQYHRLPLS,GP_HC,0.02,6 of 6,2 of 18
TVSQVYGMLSHNKNSVA,DMNTRGS,QQYDRLPLS,En_HC,-0.26,6 of 6,1 of 18
HITYGMMVAGRHSSSIA,QAETRAK,QQYDRLPLI,En_Gen,2.32,6 of 6,2 of 18
KLSQSVMFMSGVYNSVA,QMSTRAE,QQYNRLPLS,En_HC,-0.02,6 of 6,0 of 18
KSSQGLLYESRNKNSVA,SASTRES,QQYHRLPLS,Ctrl,0.50,6 of 6,0 of 18
TISQMSQLFSQTINNVA,EVSTRLN,QQYDRLPLM,En_Gen,0.92,6 of 6,1 of 18
TLSQMSGVESVKHNNVA,ENSTREK,QQYDRLPLS,En_Gen,nd,0 of 6,0 of 18

Excerpt, the first 8 entries:

CDR-L1	CDR-L2	CDR-L3	group	mean log10 Kd (nM)	seen in	signal with controls
ALRQKGFYLHGDRQNIA	HSDTRAA	QQYSMLPLA	En_Gibbs	0.07	6 of 6	0 of 18
KLSQQAEYESRVKNSVA	QASTRES	QQYHRLPLS	GP_Gibbs	-0.09	6 of 6	0 of 18
KSSQSVLYESRGKNSVA	QASGRES	QQYHRLPLS	Ctrl	1.49	1 of 6	0 of 18
KSSQSVLQESRNKNSVA	WASTRES	QQYHRLPLS	Ctrl	1.66	3 of 6	0 of 18
NLKEMEGTNQTKHGNIA	SVDQRMS	QQYFRLPLI	En_Gibbs	0.67	6 of 6	1 of 18
KLMWSMQYESRNKNSVA	GASYRES	QQYHRLPLS	GP_Gibbs	0.43	6 of 6	3 of 18
KLSQSMLYESRNKNSVA	HASLRLS	QCYHRLPLS	GP_Gibbs	2.42	6 of 6	1 of 18
KLASRQYQFGANHQNIA	DATDSMN	QQYMHLPFT	En_Gibbs	-0.63	6 of 6	0 of 18